# Test results published in US20050182044A1, “Combinatorial therapy with an acetylcholinesterase inhibitor and (3aR)-1,3a,8-trimethyl-1,2,3,3a,8,8a-hexahydropyrrolo[2,3,-b]indol-5-yl phenylcarbamate” (priority 2004, published 2005).
# Amino acid sequences for entries named in this document (tags omitted). Residues count along the entry.
# UniProt P22303, 32-617 isoform P22303-2 limits assumed: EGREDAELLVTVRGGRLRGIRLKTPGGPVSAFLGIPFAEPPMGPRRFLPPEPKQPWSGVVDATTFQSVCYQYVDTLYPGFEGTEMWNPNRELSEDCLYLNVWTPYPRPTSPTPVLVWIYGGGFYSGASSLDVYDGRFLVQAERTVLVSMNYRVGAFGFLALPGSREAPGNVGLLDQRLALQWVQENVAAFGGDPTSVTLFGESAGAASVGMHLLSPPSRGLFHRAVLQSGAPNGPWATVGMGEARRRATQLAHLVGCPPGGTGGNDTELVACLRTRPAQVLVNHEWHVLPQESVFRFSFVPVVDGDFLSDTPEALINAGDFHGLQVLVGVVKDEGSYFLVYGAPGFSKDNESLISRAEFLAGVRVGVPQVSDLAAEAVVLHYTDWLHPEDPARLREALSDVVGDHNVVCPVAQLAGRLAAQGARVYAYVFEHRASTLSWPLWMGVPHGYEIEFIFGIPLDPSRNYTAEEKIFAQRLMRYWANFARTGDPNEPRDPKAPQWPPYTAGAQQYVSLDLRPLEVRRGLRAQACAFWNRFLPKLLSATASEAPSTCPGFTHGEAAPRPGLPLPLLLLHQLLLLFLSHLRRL
# Assays:
# [1] = target: AChE (Homo sapiens, UniProt P22303); assay: biochemical; conditions: IC50 Value AChE, RBC/plasma
# [2] = target: T1, acetylcholinesterase (AChE) (Homo sapiens, UniProt P22303); conditions: human erythrocyte AChE, al-Jafari et al. (1998) per footnote; read-out: IC50 for AChE inhibition; cited from earlier work
# T1 construct: host or cells: human erythrocytes
smiles,measurement,setting,value
"CN1CC[C@@]2(C)c3cc(OC(=O)Nc4ccccc4)ccc3N(C)C12 (single isomer, unassigned; (-)) [(−)-phenserine]",IC50,[1],0.022 ± 0.001 µM
same,IC50,[2],~0.022 µM
